Experimental data from US6630484B1, “6-and 7-substituted analogs of swainsonine their preparation and therapeutic use” (priority 1996, dated 2003).

How the values were obtained:
[1] = biological target: T1, α-mannosidase from jack bean (Canavalia ensiformis, UniProt C0HJB3); test: Screen for inhibition of α-mannosidase from jack bean; format: biochemical
T1 sequence (C0HJB3 1-981): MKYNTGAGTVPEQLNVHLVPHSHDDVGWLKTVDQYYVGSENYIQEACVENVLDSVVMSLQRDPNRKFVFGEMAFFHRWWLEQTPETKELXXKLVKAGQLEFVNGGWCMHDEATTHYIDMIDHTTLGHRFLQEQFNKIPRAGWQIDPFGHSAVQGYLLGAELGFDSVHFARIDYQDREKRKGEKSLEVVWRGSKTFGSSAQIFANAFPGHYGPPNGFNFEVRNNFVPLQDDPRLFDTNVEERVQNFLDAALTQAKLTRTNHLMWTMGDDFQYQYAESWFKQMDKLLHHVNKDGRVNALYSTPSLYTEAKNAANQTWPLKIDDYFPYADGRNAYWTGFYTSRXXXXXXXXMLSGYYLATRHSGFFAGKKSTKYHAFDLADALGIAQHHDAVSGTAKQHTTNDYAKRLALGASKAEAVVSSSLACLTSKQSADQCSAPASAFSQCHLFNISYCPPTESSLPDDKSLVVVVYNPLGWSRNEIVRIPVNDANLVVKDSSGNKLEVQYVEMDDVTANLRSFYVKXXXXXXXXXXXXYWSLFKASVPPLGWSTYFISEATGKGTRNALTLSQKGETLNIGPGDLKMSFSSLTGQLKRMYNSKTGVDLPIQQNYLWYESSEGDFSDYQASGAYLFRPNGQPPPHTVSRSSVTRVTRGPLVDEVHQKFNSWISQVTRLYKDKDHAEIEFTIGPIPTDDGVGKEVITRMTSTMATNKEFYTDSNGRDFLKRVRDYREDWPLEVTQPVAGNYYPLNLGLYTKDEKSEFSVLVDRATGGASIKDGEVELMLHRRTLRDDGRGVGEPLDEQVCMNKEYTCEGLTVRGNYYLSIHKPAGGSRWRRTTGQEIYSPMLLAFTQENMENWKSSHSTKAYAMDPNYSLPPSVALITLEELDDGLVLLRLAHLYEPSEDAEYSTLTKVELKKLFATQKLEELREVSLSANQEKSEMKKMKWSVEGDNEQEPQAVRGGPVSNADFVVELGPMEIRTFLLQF
Description: All of the C(6) and C(7) alkylated swainsonine analogs were screened for inhibition activity against α-mannosidase from jack bean to ascertain their basic ability to inhibit mannosidase enzymes. Alkylation of the swainsonine backbone provides compounds with varying degrees of α-mannosidase inhibitory activity.

[2] = biological target: T2, lysosomal mannosidase (Homo sapiens, UniProt O00754); test: Selectivity for inhibition of α-mannosidase II vs. lysosomal mannosidase; format: biochemical; conditions: for ratio M/L (smaller is better): ratio of activities of α-Mannosidase II/lysosomal mannosidase
T2 sequence (O00754 50-1011): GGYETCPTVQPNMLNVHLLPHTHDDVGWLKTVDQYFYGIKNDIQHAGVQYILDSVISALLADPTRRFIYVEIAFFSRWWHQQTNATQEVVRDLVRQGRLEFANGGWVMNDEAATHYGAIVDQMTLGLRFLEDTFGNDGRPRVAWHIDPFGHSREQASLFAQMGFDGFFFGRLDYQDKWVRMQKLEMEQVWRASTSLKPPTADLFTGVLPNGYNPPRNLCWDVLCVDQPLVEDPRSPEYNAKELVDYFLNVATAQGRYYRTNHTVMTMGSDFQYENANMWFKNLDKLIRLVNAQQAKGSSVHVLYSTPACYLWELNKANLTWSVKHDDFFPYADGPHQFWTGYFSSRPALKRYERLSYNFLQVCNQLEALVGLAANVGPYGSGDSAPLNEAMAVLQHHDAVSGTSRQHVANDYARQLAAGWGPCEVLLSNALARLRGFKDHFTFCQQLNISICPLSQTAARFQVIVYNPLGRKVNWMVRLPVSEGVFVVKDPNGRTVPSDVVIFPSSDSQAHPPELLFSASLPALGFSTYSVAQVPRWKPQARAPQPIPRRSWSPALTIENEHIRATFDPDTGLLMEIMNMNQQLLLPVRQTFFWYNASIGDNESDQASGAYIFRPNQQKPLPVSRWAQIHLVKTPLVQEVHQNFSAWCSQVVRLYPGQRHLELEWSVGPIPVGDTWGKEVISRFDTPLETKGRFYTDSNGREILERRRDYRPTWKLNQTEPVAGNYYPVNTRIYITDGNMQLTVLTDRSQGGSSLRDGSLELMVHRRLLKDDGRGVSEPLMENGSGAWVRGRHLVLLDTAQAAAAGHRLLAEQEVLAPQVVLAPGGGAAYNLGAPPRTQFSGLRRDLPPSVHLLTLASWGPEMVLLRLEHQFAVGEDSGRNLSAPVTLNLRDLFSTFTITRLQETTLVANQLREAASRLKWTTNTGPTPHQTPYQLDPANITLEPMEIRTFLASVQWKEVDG

| Compound | IC50 [1] | selectivity for inhibition of α-mannosidase II over lysosomal mannosidase (in words) [2] | ratio M/L (smaller is better) [2] |
| --- | --- | --- | --- |
| O[C@H]1[C@H]2[C@H](O)CCCN2C[C@H]1O [Compound 1, swainsonine] | 0.1 µM | non-selective | 0.8 |
| O[C@@H]1[C@H](CCOCc2ccccc2)CCN2C[C@@H](O)[C@@H](O)[C@@H]12 [Compound 53, (1S,2R,7S,8R,8aR)-7-[2-(Benzyloxy)ethyl]-1,2,8-trihydroxyindolizidine] | – | increased selectivity | 0.24 |
